The target in this assay is QF2 transcriptional activator (truncated QF lacking the middle domain, residues 206-650) (Neurospora crassa) (UniProt P11638). Description: cell-based or functional assay.

“QS transcriptional repressor (from UniProt P11637 1-918)”: the repression of QF2-mediated GFP expression from P5xQUASf (flow cytometry), QS expressed from PADH1 was found to be 74%; the repression of QF2-mediated GFP expression from P5xQUASf (flow cytometry), QS expressed from PHHF2 amounted to 89%; the repression of QF2-mediated GFP expression from P5xQUASf (flow cytometry), QS expressed from PTEF1 stood at 98%.

(Values after US20260201345A1.)
